# Apparent affinities of Ab-91 variants for a coronavirus HR2 peptide

Values reported by Engelhart et al. 2022, doi:10.1038/s41597-022-01779-4 (FLAb copy).

Target: peptide PDVDLGDISGINAS, taken from heptad repeat 2 (HR2) of SARS-CoV-2 spike.

Each scFv is VL, three GGGGS repeats, VH, as in the parent Ab-91, and differs from it in the CDRs of the heavy chain only.
VL: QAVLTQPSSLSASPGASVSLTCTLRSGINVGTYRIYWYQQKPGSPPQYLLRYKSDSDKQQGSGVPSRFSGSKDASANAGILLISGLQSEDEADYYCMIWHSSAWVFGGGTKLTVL
VH: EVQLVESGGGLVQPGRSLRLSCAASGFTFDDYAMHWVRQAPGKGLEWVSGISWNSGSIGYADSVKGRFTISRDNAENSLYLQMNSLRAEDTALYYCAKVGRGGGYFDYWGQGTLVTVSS

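The starting antibody came from a phage panning campaign against this peptide. In library AAYL51, one, two or three CDR residues were substituted; doubles and triples were drawn at random. Affinity was read by AlphaSeq, a pooled yeast mating assay with surface-displayed partners. Mating (16 h, 30 °C) was followed by selection of diploids and sequencing of their barcodes. A regression on co-assayed BCL2-family reference pairs converts the normalised counts of each replicate to an apparent Kd. Mating was done three times.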

Positions count from residue 1 of the parent VH; G56D puts D in place of G.
The Kd shown is the geometric mean over detected replicates; a lower Kd is a better binder.
"no signal" marks a missing value. The strain was present, yet no cells mated with the target were sequenced in any replicate, which points to weak or no binding.
Three control strains display no target. For library AAYL51, 21% of the pairings with them gave a signal, with a median of 34 µM and one signal in twenty below 1.8 µM, so weak values seen in few replicates may be background. The control count says in how many pairings with the empty strains this scFv gave a signal.

Kd	replicates with signal	empty controls	changes
9.4 nM	3 of 3	4 of 9	G56D/I58M/Y105S
no signal	0 of 3	0 of 9	G59P/V99A/F106K
29 µM	1 of 3	1 of 9	D30G/Y60V/F106N
450 nM	3 of 3	0 of 9	T28V/S55M
no signal	0 of 3	0 of 9	H35N/G103V/Y108N
73 µM	2 of 3	1 of 9	G56P/G100K/G103W
no signal	0 of 3	1 of 9	S55M/Y60C/S63H
140 µM	2 of 3	6 of 9	F29M/G102I/G103D
8.4 nM	3 of 3	1 of 9	D62Q/G103D
no signal	0 of 3	0 of 9	I51C/S52R/S57D
26 µM	1 of 3	0 of 9	T28D/S52C/G59D
30 µM	2 of 3	8 of 9	H35V/S63F
no signal	0 of 3	0 of 9	I51P/V64Q/F106V
3.1 µM	2 of 3	2 of 9	G104Q/F106A
180 µM	2 of 3	1 of 9	Y32P/H35W/Y108T
no signal	0 of 3	1 of 9	N54G/G103V/D107G
no signal	0 of 3	0 of 9	F29E/S55Y/D62C
6.7 µM	2 of 3	2 of 9	D31N/G56P/S57N
16 µM	2 of 3	1 of 9	S55W/R101M/D107C
200 nM	3 of 3	2 of 9	T28I/Y32V/I58C
no signal	0 of 3	1 of 9	A33V/R101H/G102S
170 µM	1 of 3	3 of 9	G59P/D62T
220 µM	2 of 3	1 of 9	R101D/G104M
740 µM	1 of 3	2 of 9	F27Y/A33M/D107H
16 µM	1 of 3	4 of 9	Y60H/G100Q/F106A
no signal	0 of 3	2 of 9	G50H/S52I/V99D
1.5 µM	3 of 3	4 of 9	Y60M/G102Y
13 µM	3 of 3	2 of 9	H35C/W53M/Y105E
no signal	0 of 3	1 of 9	I51R/S52V/V99T
4.8 µM	2 of 3	0 of 9	G26I/F27E/S57A
1.9 nM	3 of 3	0 of 9	D31L/V99R/G104K
290 µM	1 of 3	2 of 9	M34H/I58G/G103M
230 nM	3 of 3	0 of 9	D31T/G102P/G104R
9.4 µM	1 of 3	1 of 9	F29V/H35M/N54P
150 µM	1 of 3	1 of 9	W53C/A61V/R101A
150 nM	3 of 3	0 of 9	G26Q/W53P/Y60I
70 µM	3 of 3	9 of 9	S52N/G102S/F106M
no signal	0 of 3	0 of 9	S52T/K65E/Y108V
19 µM	2 of 3	1 of 9	M34N/A61L/G102K
12 nM	3 of 3	2 of 9	D30N/D62E
32 µM	2 of 3	2 of 9	F27A/S57F/D62H
no signal	0 of 3	1 of 9	Y32L/G56D/V99K
34 µM	3 of 3	7 of 9	M34S/Y60S/D107A
no signal	0 of 3	0 of 9	I58D/D62M/S63F
130 nM	3 of 3	3 of 9	W53T/G56Q/V64M
no signal	0 of 3	0 of 9	D31G/G50M/D107F
no signal	0 of 3	2 of 9	G50W/G56F/G103Y
17 nM	3 of 3	0 of 9	T28D/D30G/K65N
no signal	0 of 3	0 of 9	D31F/G59Y/D62H

Excerpt, the final 6 entries:

changes,Kd,replicates with signal,empty controls
I58D/D62M/S63F,no signal,0 of 3,0 of 9
W53T/G56Q/V64M,130 nM,3 of 3,3 of 9
D31G/G50M/D107F,no signal,0 of 3,0 of 9
G50W/G56F/G103Y,no signal,0 of 3,2 of 9
T28D/D30G/K65N,17 nM,3 of 3,0 of 9
D31F/G59Y/D62H,no signal,0 of 3,0 of 9